Measurements: PubChem BioAssay AID588458 (Sanford-Burnham Center for Chemical Genomics, 2011)
The list shows a part of the results, in another mix than the full data. Active and inactive are the calls of the source. No stated cut-off is given here; in the data, active means inhibition above about 50%; inactive means the rest.

The chains behind the UniProt entries cited, without tags or fusion partners. Residues count along the entry.
UniProt P26358, 504-1616 limits assumed: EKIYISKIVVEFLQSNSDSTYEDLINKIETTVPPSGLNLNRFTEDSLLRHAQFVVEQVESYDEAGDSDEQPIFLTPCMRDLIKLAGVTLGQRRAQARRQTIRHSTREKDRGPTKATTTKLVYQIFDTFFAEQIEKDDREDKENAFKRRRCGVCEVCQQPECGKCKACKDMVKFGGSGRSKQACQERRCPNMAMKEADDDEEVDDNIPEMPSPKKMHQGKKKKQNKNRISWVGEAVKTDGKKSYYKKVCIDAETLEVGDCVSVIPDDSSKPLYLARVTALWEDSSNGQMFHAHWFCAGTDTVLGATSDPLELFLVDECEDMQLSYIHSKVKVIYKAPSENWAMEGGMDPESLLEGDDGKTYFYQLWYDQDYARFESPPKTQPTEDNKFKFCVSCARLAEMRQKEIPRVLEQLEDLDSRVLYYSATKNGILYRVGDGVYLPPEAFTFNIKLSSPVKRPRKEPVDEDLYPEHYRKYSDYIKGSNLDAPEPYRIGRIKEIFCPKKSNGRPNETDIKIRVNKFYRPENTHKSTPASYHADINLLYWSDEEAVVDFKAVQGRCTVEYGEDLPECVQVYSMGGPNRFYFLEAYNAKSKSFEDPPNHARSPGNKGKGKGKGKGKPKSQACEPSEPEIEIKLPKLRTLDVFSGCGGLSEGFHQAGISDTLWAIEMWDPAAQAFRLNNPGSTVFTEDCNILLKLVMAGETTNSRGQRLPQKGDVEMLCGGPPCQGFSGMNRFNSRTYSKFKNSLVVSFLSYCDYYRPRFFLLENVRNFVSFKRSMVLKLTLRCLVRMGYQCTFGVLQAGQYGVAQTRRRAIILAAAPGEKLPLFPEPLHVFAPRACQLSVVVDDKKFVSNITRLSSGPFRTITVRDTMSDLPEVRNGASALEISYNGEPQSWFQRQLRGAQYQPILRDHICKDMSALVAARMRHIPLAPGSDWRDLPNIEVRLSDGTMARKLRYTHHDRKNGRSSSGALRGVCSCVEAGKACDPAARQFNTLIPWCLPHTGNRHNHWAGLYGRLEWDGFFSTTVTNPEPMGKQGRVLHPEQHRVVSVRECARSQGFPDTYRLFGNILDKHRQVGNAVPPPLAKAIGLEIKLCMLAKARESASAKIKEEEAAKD

Molecular target: DNA (cytosine-5)-methyltransferase 1 (Homo sapiens) (UniProt P26358)
Experiment: human DNMT1 methyltransferase inhibitors, primary screen, biochemical, molecular beacon, fluorescence, HinP1I cleavage, uHTS (AID 588458)
Conditions: at 10 µM, active compounds read high

SMILES	inhibition (reported as % activation of signal)
CCOC(=O)N1CCC(Nc2ccc(OC)cc2)CC1	inactive: -1.68%
CCCCn1nnnc1C(c1ccc(OC)cc1)N1CCC(n2c(=O)[nH]c3ccccc32)CC1 (configuration not stated)	inactive: -7.87%
O=C(OC1CN2CCC1CC2)C1c2ccccc2Oc2ccccc21 (configuration not stated)	inactive: -2.31%
O=c1[nH]c2ccccc2n1C1CCN(C(c2cc3ccccc3o2)c2nnnn2C2CCCCC2)CC1 (configuration not stated)	inactive: -22.3%
O=C(NCC1(N2CCCCC2)CCCCC1)c1ccc(Cl)s1	inactive: 0.33%
N#CC1(Nc2ccccc2)CCN(Cc2ccccc2)CC1	inactive: -1.2%
COc1ccc(Cl)cc1C(=O)NCC1(N2CCOCC2)CCCCC1	inactive: -0.99%
O=C(NCC1(N2CCOCC2)CCCCC1)c1cc2ccccc2o1	inactive: -8.69%
O=c1[nH]c2ccccc2n1C1CCN(C(c2ccccc2OC(F)(F)F)c2nnnn2C2CCCCC2)CC1 (configuration not stated)	inactive: -4.85%
O=C(NCC1(N2CCCCC2)CCCCC1)c1ccc(Cl)nc1	inactive: -1.05%
Cc1cc(C)cc(N(C(=O)c2ccccc2)C2CCN(C(=O)OC(C)(C)C)CC2)c1	inactive: 1.21%
CSc1ccccc1C(=O)NCC1(N2CCCCC2)CCCCC1	inactive: 1.05%
Cc1cccc(NC2(C#N)CCN(Cc3ccccc3)CC2)c1	inactive: 5.09%
O=C(NCC1(N2CCCCC2)CCCCC1)c1ccc(=O)[nH]c1	inactive: 1.99%
CCCCn1nnnc1C(c1cccs1)N1CCC(n2c(=O)[nH]c3ccccc32)CC1 (configuration not stated)	inactive: 0.21%
O=C(NCC1(N2CCCCC2)CCCCC1)c1cccs1	inactive: 3.1%
CCCCn1nnnc1C(CC)N1CCC(n2c(=O)[nH]c3ccccc32)CC1 (configuration not stated)	inactive: 3.95%
COc1ccc(C(=O)NCC2(N3CCCCC3)CCCCC2)cc1	inactive: -0.01%
CCC(c1nnnn1C1CCCC1)N1CCC(n2c(=O)[nH]c3ccccc32)CC1 (configuration not stated)	inactive: 1.74%
CC(C)(C)OC(=O)N1CCC(N(C(=O)c2ccccc2)c2ccc(F)cc2)CC1	inactive: 4.19%
COc1ccc(C(=O)NCC2(N3CCCCC3)CCCCC2)c(OC)c1OC	inactive: 2.82%
O=c1[nH]c2ccccc2n1C1CCN(C(c2cccc3ccccc23)c2nnnn2C2CCCC2)CC1 (configuration not stated)	inactive: -23.6%

SMILES	inhibition (reported as % activation of signal)
COc1cc(C(=O)NCC2(N(C)C)CCCCC2)ccc1OC(F)F	inactive: -2.69%
CCOC(=O)N1CCC(Nc2cccc(C)c2)CC1	inactive: -1.39%
O=c1[nH]c2ccccc2n1C1CCN(C(c2ccccc2)c2nnnn2C2CCCCC2)CC1 (configuration not stated)	inactive: -9.06%
O=C(NCC1(N2CCCCC2)CCCCC1)c1ccc(F)cc1	inactive: 0.51%
CCCCn1nnnc1C(c1cc2ccccc2o1)N1CCC(n2c(=O)[nH]c3ccccc32)CC1 (configuration not stated)	inactive: 48.1%
O=P1(N(CCCl)CCCl)SCCCS1	inactive: 0.22%
CCCCOc1ccc(C(=O)NCC2(N3CCOCC3)CCCCC2)cc1	inactive: 1.58%
COc1ccc(NC2CCN(CCc3ccccc3)CC2)c(OC)c1	inactive: -6.27%
CCOC(=O)N1CCC(Nc2ccc(F)cc2)CC1	inactive: -0.05%
CCOc1ccc(C)cc1CN(CCCl)CCCl	inactive: -21.7%
CC(C)(C)n1nnnc1C(c1ccccc1)N1CCC(n2c(=O)[nH]c3ccccc32)CC1 (configuration not stated)	inactive: 2.21%
O=C1CCN(Cc2ccccc2)CC1	inactive: -5.45%
CCCCn1nnnc1C(c1cccc2ccccc12)N1CCC(n2c(=O)[nH]c3ccccc32)CC1 (configuration not stated)	inactive: -25.2%
CN1CCN(CCOC(=O)C(O)(c2ccccc2)c2ccccc2)CC1	inactive: 0.9%
CC(C)c1ccc(C(=O)NCC2(N3CCOCC3)CCCCC2)cc1	inactive: 1.73%
COc1ccc(NC2CCN(C(=O)OC(C)(C)C)CC2)cc1	inactive: 1.71%
COc1cc(C(=O)NCC2(N3CCCCC3)CCCCC2)ccc1OC(F)F	inactive: -2.81%
O=C(NCC1(N2CCOCC2)CCCCC1)c1cc(=O)[nH]c2ccccc12	inactive: 2.4%
O=C(NCC1(N2CCCCC2)CCCCC1)c1cccc(C(F)(F)F)c1	inactive: -0.84%
O=C(NCC1(N2CCCCC2)CCCCC1)c1cccc([N+](=O)[O-])c1	inactive: 3.17%
CSc1ccc(C(=O)NCC2(N3CCOCC3)CCCCC2)cc1	inactive: -0.14%
CCN1CCC(Nc2ccc(Cl)cc2)CC1	inactive: 0.88%

SMILES	inhibition (reported as % activation of signal)
N#CC1(Nc2ccccc2)CCN(CCc2ccccc2)CC1	inactive: 0.61%
O=c1[nH]c2ccccc2n1C1CCN(C(c2ccccc2OC(F)(F)F)c2nnnn2C2CCCC2)CC1 (configuration not stated)	inactive: -10.1%
CC(C)(C)n1nnnc1C(c1ccccc1OC(F)(F)F)N1CCC(n2c(=O)[nH]c3ccccc32)CC1 (configuration not stated)	inactive: -15.5%
O=C(NCC1(N2CCCCC2)CCCCC1)c1ccc(OC(F)F)cc1	inactive: -2.94%
Cc1ccc(C(=O)NCC2(N(C)C)CCCCC2)o1	inactive: 0.69%
CCCOc1ccc(C(=O)NCC2(N(C)C)CCCCC2)cc1OC	inactive: 0.32%
COc1ccc(C(c2nnnn2C2CCCC2)N2CCC(n3c(=O)[nH]c4ccccc43)CC2)cc1 (configuration not stated)	inactive: -1.16%
O=C(NCC1(N2CCCCC2)CCCCC1)c1cncc(Br)c1	inactive: -0.37%
CN1CCC(Nc2cccc(F)c2)CC1	inactive: -0.13%
CCCCn1nnnc1C(c1ccnc2ccccc12)N1CCC(n2c(=O)[nH]c3ccccc32)CC1 (configuration not stated)	inactive: -7.24%
COc1cc(OC)c(C(=O)NCC2(N(C)C)CCCCC2)cc1OC	inactive: -0.63%
CCC(c1nnnn1C(C)(C)C)N1CCC(n2c(=O)[nH]c3ccccc32)CC1 (configuration not stated)	inactive: -0.49%
O=C(NCC1(N2CCOCC2)CCCCC1)c1cc(F)c(F)cc1Cl	inactive: 6.04%
COc1ccc(CN(CCCl)CCCl)cc1Cl	inactive: -9.87%
CN(C)c1cccc(C(=O)NCC2(N3CCCCC3)CCCCC2)c1	inactive: 7.14%
CCCCn1nnnc1C(c1ccccc1OC(F)(F)F)N1CCC(n2c(=O)[nH]c3ccccc32)CC1 (configuration not stated)	inactive: -20.5%
CC(C)c1ccc(NC2CCN(C(=O)OC(C)(C)C)CC2)cc1	inactive: -0.53%
CCCCn1nnnc1C(c1cccc(OC)c1OC)N1CCC(n2c(=O)[nH]c3ccccc32)CC1 (configuration not stated)	inactive: -6.07%
O=C(OC1CN2CCC1CC2)C1c2ccccc2C=Cc2ccccc21 (configuration not stated)	inactive: 0.18%
O=c1[nH]c2ccccc2n1C1CCN(C(c2cccs2)c2nnnn2C2CCCC2)CC1 (configuration not stated)	inactive: 0.96%
N/C(=N\O)c1c(N)no[n+]1[O-]	inactive: 1.93%
COc1cccc(C(c2nnnn2C(C)(C)C)N2CCC(n3c(=O)[nH]c4ccccc43)CC2)c1OC (configuration not stated)	inactive: -3.71%

SMILES	inhibition (reported as % activation of signal)
CCOC(=O)N1CCC(Nc2ccc(C)cc2)CC1	inactive: -0.66%
COc1ccc(C(=O)NCC2(N3CCOCC3)CCCCC2)cc1OC	inactive: 2.3%
O=c1[nH]c2ccccc2n1C1CCN(C(c2ccnc3ccccc23)c2nnnn2C2CCCC2)CC1 (configuration not stated)	inactive: -13.2%
O=c1[nH]c2ccccc2n1C1CCN(C(c2cccs2)c2nnnn2C2CCCCC2)CC1 (configuration not stated)	inactive: -4.48%
O=C(NCC1(N2CCOCC2)CCCCC1)c1cc(Br)ccc1Cl	inactive: 1.46%
CCCCn1nnnc1C(c1ccccc1)N1CCC(n2c(=O)[nH]c3ccccc32)CC1 (configuration not stated)	inactive: -0.94%
COc1cc(C(=O)NCC2(N3CCOCC3)CCCCC2)cc(OC)c1C	inactive: 6.77%
CC(C)(C)n1nnnc1C(c1cccc2ccccc12)N1CCC(n2c(=O)[nH]c3ccccc32)CC1 (configuration not stated)	inactive: -20%
c1ccc(CN2CCC(Nc3ccccc3)CC2)cc1	inactive: -1.12%
Cc1cc(N(CCCl)CCCl)ccc1C=O	inactive: -2.07%
O=c1[nH]c2ccccc2n1C1CCN(C(c2ccccc2)c2nnnn2C2CCCC2)CC1 (configuration not stated)	inactive: -5.03%
CCCN1CCC(Nc2cc(OC)cc(OC)c2)CC1	inactive: -5.96%
CN(C)C1(CNC(=O)c2cccc(C#N)c2)CCCCC1	inactive: 1.4%
CC(C)(C)OC(=O)N1CCC(N(C(=O)c2ccccc2)c2ccc(Cl)cc2)CC1	inactive: 3.16%
N#Cc1ccc(C(=O)NCC2(N3CCCCC3)CCCCC2)cc1	inactive: 0.02%
O=C(NCC1(N2CCCCC2)CCCCC1)c1ccco1	inactive: 3.15%
Cn1c(=O)[nH]cc(N(CCCl)CCCl)c1=O	inactive: -2.3%
CN(C)c1ccc(C(=O)NCC2(N3CCCCC3)CCCCC2)cc1	inactive: -2.74%
Cc1ccccc1NC1(C#N)CCN(Cc2ccccc2)CC1	inactive: -6.37%
CC(C)(C)n1nnnc1C(c1ccnc2ccccc12)N1CCC(n2c(=O)[nH]c3ccccc32)CC1 (configuration not stated)	inactive: 3.03%
CCN1CCC(Nc2cccc(F)c2)CC1	inactive: 4.66%
COc1ccc(C(c2nnnn2C2CCCCC2)N2CCC(n3c(=O)[nH]c4ccccc43)CC2)cc1 (configuration not stated)	inactive: -5.25%

SMILES	inhibition (reported as % activation of signal)
Cc1ccc(NC2(C#N)CCN(Cc3ccccc3)CC2)cc1	inactive: -6.14%
Cc1ccc(C(=O)NCC2(N3CCCCC3)CCCCC2)o1	inactive: -0.31%
Fc1ccccc1NC1CCN(Cc2ccccc2)CC1	inactive: 2.74%
O=c1[nH]c2ccccc2n1C1CCN(C(c2ccnc3ccccc23)c2nnnn2C2CCCCC2)CC1 (configuration not stated)	inactive: -8.02%
COc1cc(OC)cc(C(=O)NCC2(N3CCCCC3)CCCCC2)c1	inactive: -1.31%
CC(=O)N(c1ccccc1)C1CCNCC1	inactive: 0.94%
COc1cccc(C(c2nnnn2C2CCCCC2)N2CCC(n3c(=O)[nH]c4ccccc43)CC2)c1OC (configuration not stated)	inactive: -5.78%
CCC(c1nnnn1C1CCCCC1)N1CCC(n2c(=O)[nH]c3ccccc32)CC1 (configuration not stated)	inactive: -2.73%
CN1CCC(Nc2ccc(Cl)cc2)CC1	inactive: -0.8%
CCC(CO)(C(=O)OC1CN2CCC1CC2)c1ccccc1 (configuration not stated)	inactive: 5.26%
COc1cc(OC)cc(C(=O)NCC2(N3CCOCC3)CCCCC2)c1	inactive: -2.27%
COc1cccc(C(c2nnnn2C2CCCC2)N2CCC(n3c(=O)[nH]c4ccccc43)CC2)c1OC (configuration not stated)	inactive: -7.24%
COc1cccc(C(=O)N(c2cc(C)cc(C)c2)C2CCN(C(=O)OC(C)(C)C)CC2)c1	inactive: -1.07%
CCCOc1ccc(C(=O)NCC2(N(C)C)CCCCC2)cc1	inactive: -0.41%
O=c1[nH]c2ccccc2n1C1CCN(C(c2cc3ccccc3o2)c2nnnn2C2CCCC2)CC1 (configuration not stated)	inactive: -14.1%
CC(C)(C)OC(=O)N1CCC(Nc2ccccc2)CC1	inactive: 10.8%
O=C(O)C1(Nc2ccccc2)CCN(Cc2ccccc2)CC1	inactive: 4.45%
CCOc1ncccc1C(=O)NCC1(N2CCOCC2)CCCCC1	inactive: -0.01%
CN1CCC(Nc2ccc(F)c(Cl)c2)CC1	inactive: -1.09%
